Experimental data: paper PMC5322802 (Biochemistry, 2016)

Target: T1, FABP1 (Mus musculus, UniProt P12710)
T1 sequence (P12710 1-127): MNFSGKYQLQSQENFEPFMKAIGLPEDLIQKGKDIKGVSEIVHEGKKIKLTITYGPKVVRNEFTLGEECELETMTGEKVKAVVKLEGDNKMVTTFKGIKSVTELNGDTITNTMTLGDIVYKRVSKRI
Experiment: cis-parinaroyl-CoA displacement from FABP1

CCCCC/C=C\C/C=C\C/C=C\C/C=C\CCCC(=O)NCCO [AEA, n-6 arachidonoylethanolamide]
fold stronger binding by FABP1 as compared to SCP2: ≥ 3 fold
fold stronger binding by FABP1 as compared to FABP3, FABP5, and FABP7 (different displacement assays): 8–10 fold
